According to PubChem BioAssay AID803 (The Scripps Research Institute Molecular Screening Center, 2007):
Only a part is listed here, and it is no random draw. Calls of active or inactive are those of the source. No stated cut-off is given here; in the data, active means activation above about 5% (passing the limit was not always enough); inactive means the rest.

Protein sequences, listed by entry. Tags and fused reporters are not part of them.
UniProt O43603, whole entry: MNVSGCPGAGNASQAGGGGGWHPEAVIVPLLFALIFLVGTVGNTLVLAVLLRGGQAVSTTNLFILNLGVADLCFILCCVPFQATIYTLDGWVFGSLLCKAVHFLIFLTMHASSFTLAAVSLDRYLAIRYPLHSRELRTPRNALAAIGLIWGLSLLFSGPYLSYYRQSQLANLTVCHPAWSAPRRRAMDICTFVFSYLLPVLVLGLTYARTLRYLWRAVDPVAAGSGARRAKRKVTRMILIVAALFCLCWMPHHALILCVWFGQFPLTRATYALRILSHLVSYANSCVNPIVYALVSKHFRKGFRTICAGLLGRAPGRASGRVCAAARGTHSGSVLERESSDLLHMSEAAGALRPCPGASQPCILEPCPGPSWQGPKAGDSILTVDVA

target: Galanin receptor type 2 (Homo sapiens) (UniProt O43603); assay: GALR2 receptor agonists, primary screen, cell-based (AID 803); settings: GALR2-expressing cells, agonist activation read-out; at 5.6 µM; active compounds read high;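 further: 0% = vehicle buffer wells and 100% = reference agonist at full effect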

Structure (SMILES) | activation
Oc1ccccc1CNc1ccccn1 | inactive: -1.36%
